Among the data in ChEMBL document CHEMBL3400062, “Synthesis of novel C5-curcuminoid-fatty acid conjugates and mechanistic investigation of their anticancer activity” (Bioorg Med Chem Lett, 2015) are IC50 values, retold here.

Amino acid sequences for entries named in this document (tags omitted). Residues count along the entry.
UniProt Q00653, 1-454 limits assumed: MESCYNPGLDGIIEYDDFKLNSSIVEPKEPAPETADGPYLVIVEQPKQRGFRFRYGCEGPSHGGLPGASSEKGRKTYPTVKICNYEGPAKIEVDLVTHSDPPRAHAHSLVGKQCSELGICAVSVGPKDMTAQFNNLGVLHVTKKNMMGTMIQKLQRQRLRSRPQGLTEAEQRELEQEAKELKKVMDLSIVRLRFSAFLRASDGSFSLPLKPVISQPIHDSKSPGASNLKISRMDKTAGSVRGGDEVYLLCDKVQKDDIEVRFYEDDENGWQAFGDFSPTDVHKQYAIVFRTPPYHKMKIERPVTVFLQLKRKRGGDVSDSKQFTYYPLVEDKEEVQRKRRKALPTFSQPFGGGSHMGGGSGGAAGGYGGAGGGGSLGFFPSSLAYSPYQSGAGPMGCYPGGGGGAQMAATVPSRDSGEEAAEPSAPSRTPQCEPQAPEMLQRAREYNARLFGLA
UniProt P19838, 1-433 limits assumed: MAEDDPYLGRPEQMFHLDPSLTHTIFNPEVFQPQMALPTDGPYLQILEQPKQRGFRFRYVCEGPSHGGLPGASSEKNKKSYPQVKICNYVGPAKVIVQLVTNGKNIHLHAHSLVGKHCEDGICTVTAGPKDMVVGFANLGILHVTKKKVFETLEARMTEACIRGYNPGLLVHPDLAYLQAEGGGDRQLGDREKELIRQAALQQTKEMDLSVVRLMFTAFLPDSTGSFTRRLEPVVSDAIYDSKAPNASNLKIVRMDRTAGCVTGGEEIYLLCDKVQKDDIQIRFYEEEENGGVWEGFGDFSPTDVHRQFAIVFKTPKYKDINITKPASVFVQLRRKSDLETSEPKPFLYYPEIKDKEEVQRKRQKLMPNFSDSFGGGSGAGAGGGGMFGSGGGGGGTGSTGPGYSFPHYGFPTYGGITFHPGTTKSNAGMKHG
UniProt Q04206, whole entry: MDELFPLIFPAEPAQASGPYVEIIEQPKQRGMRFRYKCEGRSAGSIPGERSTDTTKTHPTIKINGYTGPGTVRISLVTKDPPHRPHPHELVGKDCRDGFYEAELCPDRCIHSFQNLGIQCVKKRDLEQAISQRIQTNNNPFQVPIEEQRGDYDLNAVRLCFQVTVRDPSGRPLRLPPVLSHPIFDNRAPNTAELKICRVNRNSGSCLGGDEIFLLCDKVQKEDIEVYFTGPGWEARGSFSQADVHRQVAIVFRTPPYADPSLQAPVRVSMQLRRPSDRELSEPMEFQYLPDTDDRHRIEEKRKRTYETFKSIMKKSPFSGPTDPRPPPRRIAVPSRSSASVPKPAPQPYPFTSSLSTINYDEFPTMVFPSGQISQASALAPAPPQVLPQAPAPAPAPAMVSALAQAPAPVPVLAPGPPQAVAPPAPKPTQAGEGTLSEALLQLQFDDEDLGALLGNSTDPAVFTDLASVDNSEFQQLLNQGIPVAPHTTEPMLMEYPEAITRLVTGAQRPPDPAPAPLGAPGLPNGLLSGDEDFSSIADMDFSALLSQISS

One may read the IC50 as the concentration at which inhibition is half-maximal. Low values mean greater potency in that assay, high ones weaker potency in that assay.

In brackets after ≈: the same amount, converted by molar mass.

The test concerns the target Nuclear factor NF-kappa-B complex (Homo sapiens, UniProt Q00653+P19838+Q04206). Kind of test: Inhibition of TNFalpha-induced nuclear factor-kappa-B (unknown origin) expressed in HEK293 cells pre-incubated for 16 hrs followed by TNFalpha stimulation for 6 hrs by luciferase reporter gene assay. The class given is cell-based. In short, it runs like this: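 NFκB reporter HEK293 cells seeded at 30,000/well in assay medium without hygromycin B and allowed to reattach overnight at 37°C, 5% CO2. Compound dilutions added for 16 h (DMSO in untreated and cell-free controls). Mouse TNFα 5 ng/mL then added for 6 h. Cells lysed with one-step luciferase reagent about 15 min at room temperature, luminescence read. Non-linear regression; triplicate, mean ± SEM.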

`COc1cc(/C=C/C(=O)CC(=O)/C=C/c2ccc(O)c(OC)c2)ccc1O` [CURCUMIN] returned an IC50 of 7.7 µg/mL (≈ 20.9 µM).
